Results from patent US20230382951A1, “BRAIN PENETRATING PEPTIDES” (BOARD OF REGENTS, THE UNIVERSITY OF TEXAS SYSTEM, priority 2020, published 2023).
Where two headings read alike, the source gives them in different places.

Assays:
hCMEC/D3 cells [1] = test: Transcytosis of CX7C peptide presenting M13 phage against hCMEC/D3 cells (transwell); assay type: in vitro ADME, human; details: for transcytosis efficiency (ratio of output to input phage): peptide-presenting M13 phage, 37° C.; for fold difference in transcytosis efficiency, 37° C. versus 4° C.: M13 phage clones
hCMEC/D3 cells [2] = assay type: in vitro ADME, human
[3] = Biodistribution of FAM-labeled peptides in vivo (IVIS imaging); design: species or system Balb/c mice; details: FAM-labeled free peptide, i.v., 30 min, P<0.05
[4] = Brain distribution of M13 phage conjugated with biotinylated peptides in vivo; design: species or system Balb/c mice; details: M13 phage conjugated with biotinylated peptide, i.v., 30 min
[5] = Diffusion of FAM-peptides through Matrigel embedded in multi-channel chamber slide; assay type: physicochemical; details: FAM-labeled peptides, Matrigel microfluidic channel, 12 h
Procedure: Diffusion of selected peptides through Matrigel embedded in a multi-channel chamber slide. For diffusion through the microchannel p-Slide 0.4 VI chamber (ibidi), each channel was loaded with 30 μL Matrigel and was allowed to gel in a cold room following the manufacturer's recommendations. After gelation, the basal medium was added to hydrate the gel for 10 min. 60 μL of 100 μM of each peptide was added to the inlet reservoir of the chamber, and 60 μL of the basal medium was added to the other reservoir to create sink conditions. Olympus IX83 fluorescence microscope was set-up to image migration of fluorescent peptides in the Matrigel filled channel by recording fluorescent images every 30 min up to 12 h with Hamamatsu ORCA-flash 4.0 camera and 4*UPLSAPO objective using the GFP filter. […]
Next, diffusive transport of the peptides was imaged in a microfluidic chamber slide with embedded Matrigel to exclude possible interactions between the peptides and the polycarbonate membrane insert from the transwell. […] From the time-lapse imaging, the mean diffusivities of the peptides were calculated with a custom Matlab script (Table A) based on the solution to Fick's Second Law^91, presented as equation (1)^92 shown below.
[formula] • where C is the fluorescence intensity of the FAM-labeled peptides, x is the penetration distance at a given time t, and Deff is the effective diffusivity. […]

THRPPMWSPVWP [PC-1]
transcytosis efficiency (ratio of output to input phage) (hCMEC/D3 cells [1]): 5.34×10^−4

NWMINKE [Pep-8]
fold difference in transcytosis efficiency, 37° C. versus 4° C. (hCMEC/D3 cells [1]): 402 fold

nona-arginine [Pep R9]
reduction in transcytosis efficiency at 4° C. (hCMEC/D3 cells [2]): ~9 fold

CRTIGPSVC [PC-2]
transcytosis efficiency (ratio of output to input phage) (hCMEC/D3 cells [1]): 2.42×10^−4

TFFYGGSRGKRNNFKTEEY [Angiopep-2]
brain distribution (total radiant efficiency) vs saline group [3]: effective brain distribution
brain capillary/serum ratio [4]: 1.09 µL/g
brain parenchyma/serum ratio [4]: 0.54 µL/g
diffusivity (mean, effective) [5]: 1.17×10^−8 cm^2/s
reduction in transcytosis efficiency at 4° C. (hCMEC/D3 cells [2]; FAM-labeled peptides, 4° C. versus 37° C.): 1.4 fold

LWRPAAD [Pep-9]
fold difference in transcytosis efficiency, 37° C. versus 4° C. (hCMEC/D3 cells [1]): 169 fold
transcytosis efficiency relative to Pep-3 clone (hCMEC/D3 cells [1]; M13 phage, in vitro): about 10 fold
